US20260384438A1, “PYRROLOPYRIMIDINE CARBOXAMIDES” (published 2026)

By UniProt entry, the sequences of proteins in these tests, tags left out. Residues count along the entry.
UniProt P21802, 22-821 limits assumed: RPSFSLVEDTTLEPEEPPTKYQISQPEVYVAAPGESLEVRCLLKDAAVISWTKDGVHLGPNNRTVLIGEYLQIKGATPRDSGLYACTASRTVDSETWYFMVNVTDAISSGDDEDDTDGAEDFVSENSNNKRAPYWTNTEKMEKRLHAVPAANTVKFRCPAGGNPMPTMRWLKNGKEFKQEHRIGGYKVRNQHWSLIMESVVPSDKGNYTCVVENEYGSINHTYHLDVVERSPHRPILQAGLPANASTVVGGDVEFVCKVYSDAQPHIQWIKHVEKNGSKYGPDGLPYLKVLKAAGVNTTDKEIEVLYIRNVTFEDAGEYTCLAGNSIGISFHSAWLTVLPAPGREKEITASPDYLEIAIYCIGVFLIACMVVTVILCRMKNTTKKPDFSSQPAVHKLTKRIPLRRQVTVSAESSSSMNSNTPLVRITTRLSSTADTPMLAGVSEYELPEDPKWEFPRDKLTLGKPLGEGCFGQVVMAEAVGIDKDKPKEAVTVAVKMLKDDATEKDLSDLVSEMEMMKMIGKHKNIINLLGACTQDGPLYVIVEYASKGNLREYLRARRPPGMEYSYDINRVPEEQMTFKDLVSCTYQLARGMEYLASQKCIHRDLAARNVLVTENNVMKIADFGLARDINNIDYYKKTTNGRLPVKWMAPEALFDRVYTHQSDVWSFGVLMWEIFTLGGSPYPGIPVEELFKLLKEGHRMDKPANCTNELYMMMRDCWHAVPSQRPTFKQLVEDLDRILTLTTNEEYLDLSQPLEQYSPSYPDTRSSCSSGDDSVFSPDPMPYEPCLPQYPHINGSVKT
UniProt P22607, 23-806 limits assumed: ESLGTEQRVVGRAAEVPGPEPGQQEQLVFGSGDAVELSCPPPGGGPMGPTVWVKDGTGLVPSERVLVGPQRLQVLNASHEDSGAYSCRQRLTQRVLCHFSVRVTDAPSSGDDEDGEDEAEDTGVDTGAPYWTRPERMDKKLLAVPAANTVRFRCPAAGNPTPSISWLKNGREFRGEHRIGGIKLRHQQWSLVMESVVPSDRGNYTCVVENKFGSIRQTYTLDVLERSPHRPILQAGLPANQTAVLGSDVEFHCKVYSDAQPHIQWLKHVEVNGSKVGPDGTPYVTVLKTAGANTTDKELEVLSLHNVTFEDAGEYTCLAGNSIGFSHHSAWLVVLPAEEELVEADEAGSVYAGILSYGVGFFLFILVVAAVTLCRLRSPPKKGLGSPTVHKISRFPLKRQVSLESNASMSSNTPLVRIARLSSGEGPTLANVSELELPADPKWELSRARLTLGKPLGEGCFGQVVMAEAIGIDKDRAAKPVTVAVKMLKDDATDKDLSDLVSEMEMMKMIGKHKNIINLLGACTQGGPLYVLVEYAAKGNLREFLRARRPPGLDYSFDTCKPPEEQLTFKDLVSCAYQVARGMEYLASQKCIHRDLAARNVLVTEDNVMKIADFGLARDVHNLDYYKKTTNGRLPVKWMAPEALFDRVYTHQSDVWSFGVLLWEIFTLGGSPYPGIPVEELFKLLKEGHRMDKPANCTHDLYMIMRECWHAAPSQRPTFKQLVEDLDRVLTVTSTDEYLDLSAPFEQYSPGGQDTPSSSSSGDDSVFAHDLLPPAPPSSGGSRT
UniProt P17948, 27-1338 limits assumed: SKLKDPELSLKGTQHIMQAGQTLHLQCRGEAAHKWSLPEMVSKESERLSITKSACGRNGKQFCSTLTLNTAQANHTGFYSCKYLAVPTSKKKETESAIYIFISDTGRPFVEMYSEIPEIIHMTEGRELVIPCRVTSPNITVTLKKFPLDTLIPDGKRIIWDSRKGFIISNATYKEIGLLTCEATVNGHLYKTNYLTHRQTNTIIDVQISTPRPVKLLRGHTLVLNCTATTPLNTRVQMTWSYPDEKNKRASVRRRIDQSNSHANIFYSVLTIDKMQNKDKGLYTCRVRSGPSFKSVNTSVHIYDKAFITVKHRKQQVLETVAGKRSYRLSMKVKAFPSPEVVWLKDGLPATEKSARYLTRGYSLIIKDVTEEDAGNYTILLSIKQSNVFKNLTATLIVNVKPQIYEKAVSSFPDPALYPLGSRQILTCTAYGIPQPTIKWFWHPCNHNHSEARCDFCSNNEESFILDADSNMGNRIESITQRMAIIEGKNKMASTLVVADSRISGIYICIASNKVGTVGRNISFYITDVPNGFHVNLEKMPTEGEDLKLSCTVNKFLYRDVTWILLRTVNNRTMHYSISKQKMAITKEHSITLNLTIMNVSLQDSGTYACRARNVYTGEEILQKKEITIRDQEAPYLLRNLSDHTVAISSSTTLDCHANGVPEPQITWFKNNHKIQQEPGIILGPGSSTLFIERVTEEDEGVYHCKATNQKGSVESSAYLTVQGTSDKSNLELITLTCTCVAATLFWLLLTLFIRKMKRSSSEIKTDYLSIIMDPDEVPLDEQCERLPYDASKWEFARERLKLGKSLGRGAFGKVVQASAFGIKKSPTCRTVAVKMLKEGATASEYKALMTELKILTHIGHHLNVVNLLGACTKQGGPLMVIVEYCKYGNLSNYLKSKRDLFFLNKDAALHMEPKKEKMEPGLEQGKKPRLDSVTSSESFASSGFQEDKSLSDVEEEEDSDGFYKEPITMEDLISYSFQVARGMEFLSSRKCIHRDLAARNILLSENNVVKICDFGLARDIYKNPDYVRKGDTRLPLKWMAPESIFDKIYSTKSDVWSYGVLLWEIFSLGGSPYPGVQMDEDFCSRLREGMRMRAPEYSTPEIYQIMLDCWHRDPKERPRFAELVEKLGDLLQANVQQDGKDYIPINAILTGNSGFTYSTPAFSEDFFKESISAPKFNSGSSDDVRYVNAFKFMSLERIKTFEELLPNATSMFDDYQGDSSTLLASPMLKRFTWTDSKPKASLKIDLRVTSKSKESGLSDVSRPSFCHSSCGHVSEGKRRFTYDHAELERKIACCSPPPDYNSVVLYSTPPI
UniProt P34947, whole entry: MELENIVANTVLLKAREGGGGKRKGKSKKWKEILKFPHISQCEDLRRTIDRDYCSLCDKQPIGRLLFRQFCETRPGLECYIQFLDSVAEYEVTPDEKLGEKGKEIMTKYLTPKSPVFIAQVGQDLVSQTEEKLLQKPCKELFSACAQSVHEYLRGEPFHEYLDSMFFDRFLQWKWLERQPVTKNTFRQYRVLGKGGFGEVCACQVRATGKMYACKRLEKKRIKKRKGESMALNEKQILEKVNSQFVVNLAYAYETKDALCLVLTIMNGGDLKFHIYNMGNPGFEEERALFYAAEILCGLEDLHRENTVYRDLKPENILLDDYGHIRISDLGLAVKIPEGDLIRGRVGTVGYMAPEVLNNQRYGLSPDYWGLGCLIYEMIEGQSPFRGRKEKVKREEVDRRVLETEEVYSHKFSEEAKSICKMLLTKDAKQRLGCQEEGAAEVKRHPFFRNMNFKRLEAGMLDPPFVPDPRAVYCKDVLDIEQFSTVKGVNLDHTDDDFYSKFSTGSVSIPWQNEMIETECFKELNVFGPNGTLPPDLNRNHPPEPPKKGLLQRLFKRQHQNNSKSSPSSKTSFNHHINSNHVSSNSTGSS
UniProt Q9NWZ3, whole entry: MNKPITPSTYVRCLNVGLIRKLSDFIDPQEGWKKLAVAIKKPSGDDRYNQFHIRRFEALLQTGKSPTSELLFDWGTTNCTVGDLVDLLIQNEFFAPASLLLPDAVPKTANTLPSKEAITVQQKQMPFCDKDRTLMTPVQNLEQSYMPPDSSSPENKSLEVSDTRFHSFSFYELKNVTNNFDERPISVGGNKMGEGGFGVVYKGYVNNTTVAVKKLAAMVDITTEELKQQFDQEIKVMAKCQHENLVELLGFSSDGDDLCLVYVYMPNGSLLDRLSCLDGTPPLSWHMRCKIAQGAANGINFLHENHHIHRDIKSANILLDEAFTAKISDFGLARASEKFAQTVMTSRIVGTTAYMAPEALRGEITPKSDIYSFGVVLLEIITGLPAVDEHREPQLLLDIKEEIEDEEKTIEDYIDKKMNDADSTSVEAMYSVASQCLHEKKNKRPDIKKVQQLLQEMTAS
UniProt Q8TD19, whole entry: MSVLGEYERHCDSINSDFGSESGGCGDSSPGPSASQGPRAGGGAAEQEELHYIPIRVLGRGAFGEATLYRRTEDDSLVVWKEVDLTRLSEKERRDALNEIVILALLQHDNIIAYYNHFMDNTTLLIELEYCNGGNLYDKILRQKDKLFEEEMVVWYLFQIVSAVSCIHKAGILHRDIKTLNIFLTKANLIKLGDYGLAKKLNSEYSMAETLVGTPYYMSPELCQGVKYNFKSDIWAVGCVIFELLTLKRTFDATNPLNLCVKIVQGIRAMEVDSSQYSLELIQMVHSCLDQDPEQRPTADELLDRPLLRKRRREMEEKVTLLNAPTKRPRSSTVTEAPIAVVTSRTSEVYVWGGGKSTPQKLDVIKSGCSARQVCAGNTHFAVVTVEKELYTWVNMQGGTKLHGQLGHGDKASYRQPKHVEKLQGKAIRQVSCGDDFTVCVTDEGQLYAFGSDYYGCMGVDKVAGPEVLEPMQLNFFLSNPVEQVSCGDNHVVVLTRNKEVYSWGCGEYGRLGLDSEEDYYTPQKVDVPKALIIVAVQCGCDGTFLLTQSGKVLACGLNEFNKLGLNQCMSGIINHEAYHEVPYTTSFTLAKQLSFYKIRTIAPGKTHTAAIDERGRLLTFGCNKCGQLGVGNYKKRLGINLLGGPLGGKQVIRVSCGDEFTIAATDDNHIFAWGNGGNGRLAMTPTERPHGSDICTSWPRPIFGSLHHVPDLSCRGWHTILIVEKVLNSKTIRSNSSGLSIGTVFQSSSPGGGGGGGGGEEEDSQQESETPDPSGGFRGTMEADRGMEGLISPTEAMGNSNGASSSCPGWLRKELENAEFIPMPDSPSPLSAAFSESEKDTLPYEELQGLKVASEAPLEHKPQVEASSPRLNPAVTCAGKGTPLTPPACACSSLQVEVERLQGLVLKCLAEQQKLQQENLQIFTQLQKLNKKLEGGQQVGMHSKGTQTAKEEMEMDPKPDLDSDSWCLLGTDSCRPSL
UniProt P16234, 24-1089 limits assumed: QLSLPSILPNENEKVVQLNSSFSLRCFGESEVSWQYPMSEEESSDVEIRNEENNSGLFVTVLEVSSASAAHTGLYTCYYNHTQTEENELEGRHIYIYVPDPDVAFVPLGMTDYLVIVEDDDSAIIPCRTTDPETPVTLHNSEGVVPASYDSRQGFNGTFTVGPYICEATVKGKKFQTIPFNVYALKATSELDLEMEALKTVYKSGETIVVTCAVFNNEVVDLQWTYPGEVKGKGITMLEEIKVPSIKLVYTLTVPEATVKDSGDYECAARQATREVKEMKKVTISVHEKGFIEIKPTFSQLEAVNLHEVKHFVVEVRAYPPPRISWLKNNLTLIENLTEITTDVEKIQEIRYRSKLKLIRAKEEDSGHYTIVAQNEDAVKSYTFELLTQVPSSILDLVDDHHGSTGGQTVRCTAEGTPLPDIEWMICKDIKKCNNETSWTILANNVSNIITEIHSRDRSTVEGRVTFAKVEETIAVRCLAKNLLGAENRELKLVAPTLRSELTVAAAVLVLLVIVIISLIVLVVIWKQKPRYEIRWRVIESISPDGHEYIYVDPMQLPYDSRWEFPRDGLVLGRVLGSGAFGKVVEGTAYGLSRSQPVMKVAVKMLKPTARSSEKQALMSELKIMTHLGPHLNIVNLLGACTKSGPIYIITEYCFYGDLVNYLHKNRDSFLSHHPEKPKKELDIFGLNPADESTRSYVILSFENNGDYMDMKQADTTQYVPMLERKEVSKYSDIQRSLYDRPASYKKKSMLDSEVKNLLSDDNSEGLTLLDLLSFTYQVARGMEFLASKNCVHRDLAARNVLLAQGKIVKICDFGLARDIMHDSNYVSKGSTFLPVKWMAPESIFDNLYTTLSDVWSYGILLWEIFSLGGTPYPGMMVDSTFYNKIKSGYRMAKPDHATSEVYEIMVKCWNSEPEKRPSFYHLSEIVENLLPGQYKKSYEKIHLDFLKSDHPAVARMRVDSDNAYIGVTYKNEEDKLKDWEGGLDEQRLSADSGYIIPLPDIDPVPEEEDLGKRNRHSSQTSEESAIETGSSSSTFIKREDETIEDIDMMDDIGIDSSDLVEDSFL
UniProt Q13882, whole entry: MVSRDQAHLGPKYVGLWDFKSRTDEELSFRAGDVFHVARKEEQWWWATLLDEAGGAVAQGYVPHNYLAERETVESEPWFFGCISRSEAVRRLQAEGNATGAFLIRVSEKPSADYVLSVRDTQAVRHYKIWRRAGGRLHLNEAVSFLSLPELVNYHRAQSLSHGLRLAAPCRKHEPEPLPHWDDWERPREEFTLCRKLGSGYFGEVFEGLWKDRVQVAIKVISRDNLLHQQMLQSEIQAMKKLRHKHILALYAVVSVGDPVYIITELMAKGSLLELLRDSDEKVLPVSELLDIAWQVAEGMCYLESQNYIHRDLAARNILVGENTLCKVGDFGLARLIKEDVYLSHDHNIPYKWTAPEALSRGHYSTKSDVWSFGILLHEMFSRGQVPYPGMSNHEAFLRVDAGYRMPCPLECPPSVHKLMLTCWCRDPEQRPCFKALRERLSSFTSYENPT

Assays:
OVCAR3 cells = test: Cellular proliferation (Hoechst staining), OVCAR3; settings: read-out: OVCAR3 GI50; CCNE1-amplified, 4 days
SKOV3 cells = test: Cellular proliferation (Hoechst staining), SKOV3; settings: read-out: SKOV3 GI50; CCNE1-nonamplified, 4 days
Log D octanol/PBS pH 7.4 = settings: octanol/PBS pH 7.4, 1 μM
Caco-2 cell permeability = settings: 10 μM
CYP2C9 = CYP2C9 (Homo sapiens, UniProt P11712); test: CYP time dependent inhibition, CYP2C9; settings: 10 μM, 30 min preincubation, HLM
CYP3A = test: CYP time dependent inhibition, CYP3A; settings: 10 μM, 30 min preincubation, HLM
THP-1 cells = test: THP-1 assay (cytotoxicity, resazurin); settings: read-out: THP-1 cytotoxicity IC50, 48 h
SW620 tumors = test: Human colorectal SW620 cell line-derived xenograft model in female athymic nude mice
[1] = In vivo pharmacokinetics in intact male Han Wistar rats (I.V.); settings: intact male Han Wistar rat, I.V. 0.5 mg/kg
[2] = In vivo pharmacokinetics in bile-duct-cannulated male Han Wistar rats (I.V.); settings: BDC male Han Wistar rat, I.V. 0.5 mg/kg
ACVR1B (ALK4) = ACVR1B (ALK4) (Homo sapiens, UniProt P36896); test: Kinase profiling, Z-Lyte *Mn*
EGFR (ErbB1) = EGFR (ErbB1) (Homo sapiens, UniProt P00533); test: Kinase profiling, Z-Lyte *Mn*; settings: 1 μM, KmATP
ERBB2 (HER2) = ERBB2 (HER2) (Homo sapiens, UniProt P04626); test: Kinase profiling, Z-Lyte *Mn*; settings: 1 μM, KmATP
ERBB4 (HER4) = ERBB4 (HER4) (Homo sapiens, UniProt Q15303); test: Kinase profiling, Z-Lyte *Mn*; settings: 1 μM, KmATP
FGFR1 = FGFR1 (Homo sapiens, UniProt P11362); test: Kinase profiling, Z-Lyte *Mn*; settings: 1 μM, KmATP
FGFR2 = FGFR2 (Homo sapiens, UniProt P21802); test: Kinase profiling, Z-Lyte *Mn*; settings: 1 μM, KmATP
FGFR3 = FGFR3 (Homo sapiens, UniProt P22607); test: Kinase profiling, Z-Lyte *Mn*; settings: 1 μM, KmATP
FGFR4 = FGFR4 (Homo sapiens, UniProt P22455); test: Kinase profiling, Z-Lyte *Mn*; settings: 1 μM, KmATP
FLT1 (VEGFR1) = FLT1 (VEGFR1) (Homo sapiens, UniProt P17948); test: Kinase profiling, Z-Lyte *Mn*; settings: 1 μM, KmATP
FLT4 (VEGFR3) = FLT4 (VEGFR3) (Homo sapiens, UniProt P35916); test: Kinase profiling, Z-Lyte *Mn*; settings: 1 μM, KmATP
FRAP1 (mTOR) = FRAP1 (mTOR) (Homo sapiens, UniProt P42345); test: Kinase profiling, Z-Lyte *Mn*; settings: 1 μM, KmATP
GRK5 = GRK5 (Homo sapiens, UniProt P34947); test: Kinase profiling, Z-Lyte *Mn*; settings: 1 μM, KmATP
INSR = INSR (Homo sapiens, UniProt P06213); test: Kinase profiling, Z-Lyte *Mn*; settings: 1 μM, KmATP
INSRR (IRR) = INSRR (IRR) (Homo sapiens, UniProt P14616); test: Kinase profiling, Z-Lyte *Mn*; settings: 1 μM, KmATP
IRAK4 = IRAK4 (Homo sapiens, UniProt Q9NWZ3); test: Kinase profiling, Z-Lyte *Mn*; settings: 1 μM, KmATP
KIT = KIT (Homo sapiens, UniProt P10721); test: Kinase profiling, Z-Lyte *Mn*; settings: 1 μM, KmATP
MERTK (cMER) = MERTK (cMER) (Homo sapiens, UniProt Q12866); test: Kinase profiling, Z-Lyte *Mn*; settings: 1 μM, KmATP
MKNK1 (MNK1) = MKNK1 (MNK1) (Homo sapiens, UniProt Q9BUB5); test: Kinase profiling, Z-Lyte *Mn*; settings: 1 μM, KmATP
MUSK = MUSK (Homo sapiens, UniProt O15146); test: Kinase profiling, Z-Lyte *Mn*; settings: 1 μM, KmATP
NEK9 = NEK9 (Homo sapiens, UniProt Q8TD19); test: Kinase profiling, Z-Lyte *Mn*; settings: 1 μM, KmATP
NTRK2 (TRKB) = NTRK2 (TRKB) (Homo sapiens, UniProt Q16620); test: Kinase profiling, Z-Lyte *Mn*; settings: 1 μM, KmATP
PDGFRA = PDGFRA (Homo sapiens, UniProt P16234); test: Kinase profiling, Z-Lyte *Mn*; settings: 1 μM, KmATP
PDGFRB = PDGFRB (Homo sapiens, UniProt P09619); test: Kinase profiling, Z-Lyte *Mn*; settings: 1 μM, KmATP
PTK2B (FAK2) = PTK2B (FAK2) (Homo sapiens, UniProt Q14289); test: Kinase profiling, Z-Lyte *Mn*; settings: 1 μM, KmATP
PTK6 (Brk) = PTK6 (Brk) (Homo sapiens, UniProt Q13882); test: Kinase profiling, Z-Lyte *Mn*; settings: 1 μM, KmATP
TEK (Tie2) = TEK (Tie2) (Homo sapiens, UniProt Q02763); test: Kinase profiling, Z-Lyte *Mn*; settings: 1 μM, KmATP
ZAP70 = ZAP70 (Homo sapiens, UniProt P43403); test: Kinase profiling, Z-Lyte *Mn*; settings: 1 μM, KmATP

SMILES: Cc1nc(C(F)(F)F)c2c(C(N)=O)c(N)n(-c3c(C)ccc(O)c3C)c2n1 (single isomer, unassigned)
- GI50 (OVCAR3 cells): 2.21 µM
- GI50 (SKOV3 cells): > 20.5 µM
- LogD (Log D octanol/PBS pH 7.4): 1.36
- Caco-2 A-B Papp (Caco-2 cell permeability; 2 h, 37 °C): 30.060 1E−6.cm/s
- Caco-2 EFFLUX RATIO (Caco-2 cell permeability; Papp(B to A)/Papp(A to B)): 1.84
- % time dependent inhibition (TDI), CYP2C9 (CYP2C9): less than 20%
- % time dependent inhibition (TDI), CYP3A (CYP3A): less than 20%
- IC50 (THP-1 cells): 34 µM
- combination benefit (SW620 tumors; 10 mg/kg BID + irinotecan hydrochloride): Combination benefit was observed but less pronounced
- tumor regression (SW620 tumors; 100 mg/kg BID + 50 mg/kg irinotecan hydrochloride i.p. once weekly, P<0.01): 18%
- tumor growth inhibition (SW620 tumors; 100 mg/kg BID monotherapy): did not result in tumor growth inhibition
- AUC [1]: 1.34 µM·h
- CL [1]: 16.7 mL/min/kg
- Cmax [1]: 1400 nM
- Tmax [1]: 1.8 min
- VSS [1]: 7.87 L/kg
- t1/2 [1]: 10.3 h
- AUC [2]: 0.868 µM·h
- CL [2]: 27.9 mL/min/kg
- Cmax [2]: 1830 nM
- Tmax [2]: 4.8 min
- VSS [2]: 1.19 L/kg
- t1/2 [2]: 2.03 h
- MEAN INHIBITION (ACVR1B (ALK4); 1 μM, KmATP): 16.559%
- IC50 (ACVR1B (ALK4); 10-point CR, ATP 5.000 μM): 2.01 µM
- MEAN INHIBITION (EGFR (ErbB1)): −1.842%
- MEAN INHIBITION (ERBB2 (HER2)): 0.967%
- MEAN INHIBITION (ERBB4 (HER4)): −2.799%
- MEAN INHIBITION (FGFR1): 23.959%
- MEAN INHIBITION (FGFR2): 2.906%
- MEAN INHIBITION (FGFR3): −3.160%
- MEAN INHIBITION (FGFR4): 0.351%
- MEAN INHIBITION (FLT1 (VEGFR1)): −2.074%
- MEAN INHIBITION (FLT4 (VEGFR3)): 3.700%
- MEAN INHIBITION (FRAP1 (mTOR)): 0.025%
- MEAN INHIBITION (GRK5): −1.432%
- MEAN INHIBITION (INSR): 5.030%
- MEAN INHIBITION (INSRR (IRR)): 3.922%
- MEAN INHIBITION (IRAK4): −5.866%
- MEAN INHIBITION (KIT): −0.129%
- MEAN INHIBITION (MERTK (cMER)): 4.429%
- MEAN INHIBITION (MKNK1 (MNK1)): 0.622%
- MEAN INHIBITION (MUSK): −4.285%
- MEAN INHIBITION (NEK9): 0.700%
- MEAN INHIBITION (NTRK2 (TRKB)): 11.914%
- MEAN INHIBITION (PDGFRA): −15.943%
- MEAN INHIBITION (PDGFRB): 3.732%
- MEAN INHIBITION (PTK2B (FAK2)): 4.024%
- MEAN INHIBITION (PTK6 (Brk)): 90.004%
- MEAN INHIBITION (TEK (Tie2)): 6.545%
- MEAN INHIBITION (ZAP70): 8.344%
